From ChEMBL document CHEMBL2384966, “Probes for narcotic receptor mediated phenomena. 47. Novel C4a- and N-substituted-1,2,3,4,4a,9a-hexahydrobenzofuro[2,3-c]pyridin-6-ols” (Bioorg Med Chem, 2013)
Activity calls are given as the source filed them. The rule behind the calls is not given here.

Chains of the proteins cited; added tags and fusions are not shown.
UniProt P41143, whole entry, looked up: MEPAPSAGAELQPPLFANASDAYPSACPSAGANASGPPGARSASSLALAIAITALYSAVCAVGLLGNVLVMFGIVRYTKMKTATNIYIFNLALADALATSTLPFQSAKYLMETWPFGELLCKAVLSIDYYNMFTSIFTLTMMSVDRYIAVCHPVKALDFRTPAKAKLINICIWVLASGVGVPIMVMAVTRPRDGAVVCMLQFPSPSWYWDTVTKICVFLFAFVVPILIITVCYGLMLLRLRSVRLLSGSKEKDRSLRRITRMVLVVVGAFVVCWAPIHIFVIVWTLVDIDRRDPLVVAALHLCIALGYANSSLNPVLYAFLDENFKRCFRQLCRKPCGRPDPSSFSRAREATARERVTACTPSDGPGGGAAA
UniProt P35372, whole entry, looked up: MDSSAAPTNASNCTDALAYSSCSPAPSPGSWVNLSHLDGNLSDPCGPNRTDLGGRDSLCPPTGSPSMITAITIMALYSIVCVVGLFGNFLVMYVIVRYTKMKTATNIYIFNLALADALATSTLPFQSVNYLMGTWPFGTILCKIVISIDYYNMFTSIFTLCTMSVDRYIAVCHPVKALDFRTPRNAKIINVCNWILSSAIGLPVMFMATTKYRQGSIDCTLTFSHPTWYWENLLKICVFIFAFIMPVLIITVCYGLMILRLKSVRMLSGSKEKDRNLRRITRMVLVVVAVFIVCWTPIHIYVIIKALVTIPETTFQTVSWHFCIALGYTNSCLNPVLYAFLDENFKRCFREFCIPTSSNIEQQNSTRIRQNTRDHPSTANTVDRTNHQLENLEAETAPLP

What was measured:
[1] = target: T1, Delta-type opioid receptor (Homo sapiens, UniProt P41143); experiment: Antagonist activity at human recombinant delta opioid receptor expressed in mouse/rat NG108-15 cell membranes assessed as inhibition of SNC80-induced [35S]GTPgammaS binding by liquid scintillation counting analysis; assay type: functional
Homo sapiens [2] = species on record: Homo sapiens; experiment: Selectivity ratio of Ki for human recombinant kappa opioid receptor to Ki for human recombinant delta opioid receptor
Homo sapiens [3] = species on record: Homo sapiens; experiment: Selectivity ratio of Ki for human recombinant kappa opioid receptor to Ki for human recombinant mu opioid receptor
Homo sapiens [4] = species on record: Homo sapiens; experiment: Selectivity ratio of Ki for human recombinant mu opioid receptor to Ki for human recombinant delta opioid receptor
Mu-type opioid receptor [5] = target: T2, Mu-type opioid receptor (Homo sapiens, UniProt P35372); conditions: CHO
Mu-type opioid receptor [6] = target: T2, Mu-type opioid receptor; experiment: Partial agonist activity at human recombinant mu opioid receptor expressed in CHO cell membranes assessed as stimulation of [35S]GTPgammaS binding after 3 hrs by liquid scintillation counting analysis
[7] = target: T1, Delta-type opioid receptor; experiment: Agonist activity at human recombinant delta opioid receptor expressed in mouse/rat NG108-15 cell membranes assessed as stimulation of [35S]GTPgammaS binding after 3 hrs by liquid scintillation counting analysis
[8] = target: T1, Delta-type opioid receptor; experiment: Agonist activity at human recombinant delta opioid receptor expressed in mouse/rat NG108-15 cell membranes assessed as stimulation of [35S]GTPgammaS binding at 500 nM after 3 hrs by liquid scintillation counting analysis relative to control

**Q.** Which Ke [1] does the source give for `CCCCC[C@@]12CCN(C)C[C@@H]1Oc1ccc(O)cc12` here?
**A.** Its Ke is > 200 nM.

**Q.** What about the Ratio Ki (Homo sapiens [2]) of the same compound?
**A.** The Ratio Ki was 29.

**Q.** What about the Ratio Ki (Homo sapiens [3]) of the same compound?
**A.** Its Ratio Ki is 11.

**Q.** What about the Ratio Ki (Homo sapiens [4]) of the same compound?
**A.** Its Ratio Ki is 3.

**Q.** `C=CCN1CC[C@@]2(CCc3ccccc3)c3cc(O)ccc3O[C@H]2C1` was tested. Which Ke [1] did it give?
**A.** Its Ke is 43 nM.

**Q.** What about the Ratio Ki (Homo sapiens [2]) of the same compound?
**A.** The Ratio Ki was 1.5.

**Q.** And the Ratio Ki (Homo sapiens [3])?
**A.** The Ratio Ki was 3.

**Q.** And the Ratio Ki (Homo sapiens [4])?
**A.** The Ratio Ki was 0.4.

**Q.** And the Ke (Mu-type opioid receptor [5])?
**A.** The Ke was 37 nM.

**Q.** What about the ED50 (Mu-type opioid receptor [6]) of the same compound?
**A.** Its ED50 is “inactive”.

**Q.** Which ED50 [7] does the source give for `C=CCN1C[C@H](C)N([C@H](c2ccc(C(=O)NCC)cc2)c2cccc(OC)c2)C[C@H]1C` here?
**A.** Its ED50 is 0.055 µM.

**Q.** What about the Emax [8] of the same compound?
**A.** The Emax was 104%.

**Q.** Which results are given for `CN1CC[C@@]2(CCCCc3ccccc3)c3cc(O)ccc3O[C@H]2C1`?
**A.** Ke [1]: > 200 nM; Ratio Ki (Homo sapiens [2]): 6; Ratio Ki (Homo sapiens [3]): 4; Ratio Ki (Homo sapiens [4]): 2

**Q.** Which results are given for `CN1CC[C@@]2(Cc3ccccc3)c3cc(O)ccc3O[C@H]2C1` (racemic)?
**A.** Ratio Ki (Homo sapiens [2]): 45; Ratio Ki (Homo sapiens [3]): 48; Ratio Ki (Homo sapiens [4]): 0.9

**Q.** Which results are given for `CN1CC[C@@]2(CCCc3ccccc3)c3cc(O)ccc3O[C@H]2C1`?
**A.** Ke [1]: 88 nM; Ratio Ki (Homo sapiens [2]): 7; Ratio Ki (Homo sapiens [3]): 1.4; Ratio Ki (Homo sapiens [4]): 5

**Q.** `CCC[C@@]12CCN(C)C[C@@H]1Oc1ccc(O)cc12` was tested. Which Ratio Ki (Homo sapiens [2]) did it give?
**A.** The Ratio Ki was 3.

**Q.** And the Ratio Ki (Homo sapiens [3])?
**A.** Its Ratio Ki is 20.

**Q.** And the Ratio Ki (Homo sapiens [4])?
**A.** The Ratio Ki was 0.2.

**Q.** Which results are given for `CN1CC[C@@]2(CCc3ccccc3)c3cc(O)ccc3O[C@H]2C1` (racemic)?
**A.** Ratio Ki (Homo sapiens [2]): 6; Ratio Ki (Homo sapiens [3]): 54; Ratio Ki (Homo sapiens [4]): 0.1
